Test results published in patent publication US8148092B2, “System and method for performing G protein coupled receptor (GPCR) cell assays using waveguide-grating sensors” (Corning Incorporated, priority 2005, dated 2012).

Tested on: CHO cells with stably overexpressed rat muscarinic receptor subtype 1 (M1 CHO)
Experiment: optical LID mass redistribution response of CHO cells with stably overexpressed rat muscarinic receptor subtype 1 after compound addition
Type: cell-based, Chinese Hamster
Details: compound 10 μM, compared with CHO cells, FIGS. 14, 15, 18
Description: FIG. 14 a time-dependent LID response of engineered Chinese Hamster Ovary (CHO) cells with over-expressed rat muscarnic receptor subtype 1 (thus this cell line is termed as M1 CHO) before and after compound addition. The compound concentration used is 10 μM for all compounds.

Clc1cccc(Cl)c1N=C1NCCN1 [clonidine]
ligand-induced mass redistribution signal (total change in response): induced mass redistribution signals
